Laboratory results from PMC7959488, “Identify potent SARS-CoV-2 main protease inhibitors via accelerated free energy perturbation-based virtual screening of existing drugs” (Proceedings of the National Academy of Sciences of the …, 2020).

Biological target: SARS-CoV-2 M^pro (Severe acute respiratory syndrome coronavirus 2, UniProt P0DTD1)

In the case of `OCCN(CCO)c1nc(N2CCCCC2)c2nc(N(CCO)CCO)nc(N3CCCCC3)c2n1` [DIP, dipyridamole], the UEFEP-ABFE is reported as 1.5 kcal/mol.
